PMC4266452, “Prediction of Thorough QT study results using action potential simulations based on ion channel screens” (Journal of Pharmacological and Toxicological Methods, 2014)
Where two headings read alike, the source gives them in different places.

Amino acid sequences for entries named in this document (tags omitted). A change or cut given only in a name is not applied to a line headed by its entry.
UniProt Q14524, whole entry: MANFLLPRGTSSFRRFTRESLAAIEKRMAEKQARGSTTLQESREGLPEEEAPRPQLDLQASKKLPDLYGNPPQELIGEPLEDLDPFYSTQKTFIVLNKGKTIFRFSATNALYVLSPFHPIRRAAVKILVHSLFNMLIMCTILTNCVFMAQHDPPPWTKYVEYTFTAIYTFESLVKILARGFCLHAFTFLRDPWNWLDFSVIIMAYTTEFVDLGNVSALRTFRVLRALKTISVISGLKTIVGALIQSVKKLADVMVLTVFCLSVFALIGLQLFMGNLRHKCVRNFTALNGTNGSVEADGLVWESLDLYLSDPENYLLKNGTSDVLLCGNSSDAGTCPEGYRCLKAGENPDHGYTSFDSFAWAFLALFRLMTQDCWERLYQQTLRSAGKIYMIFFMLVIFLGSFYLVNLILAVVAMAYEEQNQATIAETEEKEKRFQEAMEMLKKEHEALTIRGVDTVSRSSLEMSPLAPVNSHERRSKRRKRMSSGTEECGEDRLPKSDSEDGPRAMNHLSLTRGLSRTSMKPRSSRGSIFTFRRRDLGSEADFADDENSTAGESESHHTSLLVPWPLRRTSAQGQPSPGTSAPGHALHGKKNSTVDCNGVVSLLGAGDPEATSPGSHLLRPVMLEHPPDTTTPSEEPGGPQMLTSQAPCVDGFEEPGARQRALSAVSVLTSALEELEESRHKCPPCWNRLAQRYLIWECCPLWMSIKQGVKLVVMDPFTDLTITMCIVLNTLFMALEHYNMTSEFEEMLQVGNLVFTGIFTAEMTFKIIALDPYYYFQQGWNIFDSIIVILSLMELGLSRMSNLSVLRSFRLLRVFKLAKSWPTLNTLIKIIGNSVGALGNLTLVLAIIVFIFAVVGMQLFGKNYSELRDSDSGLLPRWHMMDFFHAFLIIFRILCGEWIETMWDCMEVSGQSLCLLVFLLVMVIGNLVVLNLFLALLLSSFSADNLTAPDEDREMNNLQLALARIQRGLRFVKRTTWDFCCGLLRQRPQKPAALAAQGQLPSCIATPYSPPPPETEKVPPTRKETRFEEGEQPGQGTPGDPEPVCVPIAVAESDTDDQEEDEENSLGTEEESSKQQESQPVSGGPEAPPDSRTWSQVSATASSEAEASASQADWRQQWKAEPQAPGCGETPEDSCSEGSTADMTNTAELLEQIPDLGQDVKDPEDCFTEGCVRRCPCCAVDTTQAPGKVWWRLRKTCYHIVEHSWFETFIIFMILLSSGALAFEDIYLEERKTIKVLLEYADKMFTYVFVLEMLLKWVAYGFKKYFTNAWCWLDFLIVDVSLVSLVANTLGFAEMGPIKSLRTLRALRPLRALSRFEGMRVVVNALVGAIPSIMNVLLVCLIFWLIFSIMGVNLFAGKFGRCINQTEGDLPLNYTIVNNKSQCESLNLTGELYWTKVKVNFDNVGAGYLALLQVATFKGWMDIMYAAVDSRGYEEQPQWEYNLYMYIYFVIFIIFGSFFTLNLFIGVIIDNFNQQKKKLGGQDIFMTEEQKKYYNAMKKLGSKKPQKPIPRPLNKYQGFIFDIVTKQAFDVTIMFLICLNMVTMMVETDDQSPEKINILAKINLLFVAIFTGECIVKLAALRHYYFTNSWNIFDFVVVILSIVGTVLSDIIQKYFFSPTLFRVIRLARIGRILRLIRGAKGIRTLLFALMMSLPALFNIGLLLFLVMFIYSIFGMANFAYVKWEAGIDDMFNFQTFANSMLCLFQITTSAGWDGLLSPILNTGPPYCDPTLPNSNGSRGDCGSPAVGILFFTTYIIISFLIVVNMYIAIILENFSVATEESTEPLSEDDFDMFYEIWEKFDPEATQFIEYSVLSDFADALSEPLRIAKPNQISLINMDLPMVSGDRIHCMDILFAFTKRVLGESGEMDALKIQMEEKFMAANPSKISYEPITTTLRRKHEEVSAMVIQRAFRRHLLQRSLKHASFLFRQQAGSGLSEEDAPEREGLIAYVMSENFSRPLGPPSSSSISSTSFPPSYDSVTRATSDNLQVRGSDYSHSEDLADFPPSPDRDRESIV
UniProt Q12809: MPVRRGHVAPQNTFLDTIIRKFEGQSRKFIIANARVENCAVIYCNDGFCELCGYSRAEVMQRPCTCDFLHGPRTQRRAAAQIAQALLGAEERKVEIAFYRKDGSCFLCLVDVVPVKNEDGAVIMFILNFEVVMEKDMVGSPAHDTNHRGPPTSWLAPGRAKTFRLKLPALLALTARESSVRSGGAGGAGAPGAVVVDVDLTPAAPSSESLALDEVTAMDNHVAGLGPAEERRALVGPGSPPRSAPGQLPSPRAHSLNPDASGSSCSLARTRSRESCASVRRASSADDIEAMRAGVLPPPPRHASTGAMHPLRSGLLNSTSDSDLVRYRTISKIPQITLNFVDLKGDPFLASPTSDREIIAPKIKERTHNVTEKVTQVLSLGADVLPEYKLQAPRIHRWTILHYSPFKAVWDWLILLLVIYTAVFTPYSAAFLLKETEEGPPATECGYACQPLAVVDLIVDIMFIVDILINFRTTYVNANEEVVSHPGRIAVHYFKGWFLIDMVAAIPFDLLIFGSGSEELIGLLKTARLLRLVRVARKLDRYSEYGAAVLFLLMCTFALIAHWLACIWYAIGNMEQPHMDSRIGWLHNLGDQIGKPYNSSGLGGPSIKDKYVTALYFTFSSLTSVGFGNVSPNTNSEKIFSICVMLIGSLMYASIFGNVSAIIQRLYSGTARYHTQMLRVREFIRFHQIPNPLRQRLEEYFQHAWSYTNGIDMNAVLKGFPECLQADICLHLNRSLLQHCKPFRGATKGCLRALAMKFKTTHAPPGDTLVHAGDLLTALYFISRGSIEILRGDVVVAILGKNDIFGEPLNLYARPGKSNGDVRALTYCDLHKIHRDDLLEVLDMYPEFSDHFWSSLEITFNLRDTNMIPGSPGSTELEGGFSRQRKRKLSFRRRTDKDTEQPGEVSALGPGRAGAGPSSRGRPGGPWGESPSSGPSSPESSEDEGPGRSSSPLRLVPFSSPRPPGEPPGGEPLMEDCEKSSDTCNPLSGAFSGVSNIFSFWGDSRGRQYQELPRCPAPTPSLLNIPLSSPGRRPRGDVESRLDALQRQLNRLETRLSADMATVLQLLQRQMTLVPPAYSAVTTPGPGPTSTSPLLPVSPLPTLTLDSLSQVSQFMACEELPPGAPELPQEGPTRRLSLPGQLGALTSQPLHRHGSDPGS
UniProt Q13936, whole entry: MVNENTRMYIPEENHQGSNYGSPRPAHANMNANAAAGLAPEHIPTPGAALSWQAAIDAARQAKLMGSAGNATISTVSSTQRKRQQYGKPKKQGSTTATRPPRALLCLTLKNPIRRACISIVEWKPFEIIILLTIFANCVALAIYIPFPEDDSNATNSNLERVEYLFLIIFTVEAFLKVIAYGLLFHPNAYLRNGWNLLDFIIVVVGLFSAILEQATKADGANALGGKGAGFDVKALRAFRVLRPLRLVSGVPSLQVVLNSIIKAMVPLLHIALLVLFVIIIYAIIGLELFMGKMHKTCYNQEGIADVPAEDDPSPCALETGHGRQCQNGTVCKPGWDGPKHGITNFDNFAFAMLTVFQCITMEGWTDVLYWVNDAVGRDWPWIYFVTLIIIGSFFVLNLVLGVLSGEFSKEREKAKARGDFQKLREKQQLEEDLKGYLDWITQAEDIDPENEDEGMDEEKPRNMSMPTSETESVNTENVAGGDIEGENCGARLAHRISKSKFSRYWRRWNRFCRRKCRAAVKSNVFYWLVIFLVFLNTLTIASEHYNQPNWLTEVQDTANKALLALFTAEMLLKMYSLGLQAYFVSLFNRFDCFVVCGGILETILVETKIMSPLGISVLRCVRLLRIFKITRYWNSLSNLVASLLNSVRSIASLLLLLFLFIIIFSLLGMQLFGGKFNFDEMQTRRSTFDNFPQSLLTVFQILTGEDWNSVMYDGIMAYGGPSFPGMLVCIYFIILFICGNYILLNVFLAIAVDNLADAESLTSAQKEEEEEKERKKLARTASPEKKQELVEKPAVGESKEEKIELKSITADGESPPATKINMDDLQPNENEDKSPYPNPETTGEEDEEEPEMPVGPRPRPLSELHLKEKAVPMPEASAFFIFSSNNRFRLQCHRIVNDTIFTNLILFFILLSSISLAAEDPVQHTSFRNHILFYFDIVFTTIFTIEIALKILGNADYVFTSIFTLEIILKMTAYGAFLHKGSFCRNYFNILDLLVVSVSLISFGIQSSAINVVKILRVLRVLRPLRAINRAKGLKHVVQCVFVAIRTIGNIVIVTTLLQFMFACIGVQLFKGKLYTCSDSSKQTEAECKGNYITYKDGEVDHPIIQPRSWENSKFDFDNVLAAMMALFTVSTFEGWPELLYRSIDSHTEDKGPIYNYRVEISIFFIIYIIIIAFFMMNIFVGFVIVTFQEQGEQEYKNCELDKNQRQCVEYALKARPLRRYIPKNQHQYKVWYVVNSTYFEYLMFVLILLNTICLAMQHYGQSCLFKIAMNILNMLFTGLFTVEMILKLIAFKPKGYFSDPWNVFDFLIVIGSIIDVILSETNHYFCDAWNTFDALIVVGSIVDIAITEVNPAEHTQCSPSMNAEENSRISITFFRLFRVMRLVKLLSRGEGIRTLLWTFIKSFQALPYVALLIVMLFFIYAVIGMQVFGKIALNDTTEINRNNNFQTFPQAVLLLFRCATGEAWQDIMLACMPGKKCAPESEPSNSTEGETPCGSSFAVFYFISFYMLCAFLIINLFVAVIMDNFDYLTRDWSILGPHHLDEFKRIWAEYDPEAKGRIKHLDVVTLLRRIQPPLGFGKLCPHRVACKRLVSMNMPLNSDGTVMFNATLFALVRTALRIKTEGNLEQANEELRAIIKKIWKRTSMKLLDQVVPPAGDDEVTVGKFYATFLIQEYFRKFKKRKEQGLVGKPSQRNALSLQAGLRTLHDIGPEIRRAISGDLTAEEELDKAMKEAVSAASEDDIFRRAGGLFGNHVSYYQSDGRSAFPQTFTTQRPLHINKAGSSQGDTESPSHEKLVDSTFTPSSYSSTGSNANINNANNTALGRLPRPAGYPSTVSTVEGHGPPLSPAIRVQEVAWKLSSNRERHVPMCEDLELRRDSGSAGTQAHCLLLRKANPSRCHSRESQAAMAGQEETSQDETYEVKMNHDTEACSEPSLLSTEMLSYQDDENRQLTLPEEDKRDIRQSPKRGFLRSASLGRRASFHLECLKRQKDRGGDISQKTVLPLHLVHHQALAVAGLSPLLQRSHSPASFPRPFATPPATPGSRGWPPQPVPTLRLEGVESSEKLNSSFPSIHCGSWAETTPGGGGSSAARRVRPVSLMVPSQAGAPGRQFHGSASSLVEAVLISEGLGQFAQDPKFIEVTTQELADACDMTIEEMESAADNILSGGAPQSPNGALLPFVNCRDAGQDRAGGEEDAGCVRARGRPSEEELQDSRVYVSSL

Tests used:
KCNQ1/MinK = KCNQ1/MinK (Homo sapiens, UniProt P51787); experiment: IonWorks Quattro KCNQ1/MinK screen (AstraZeneca, Q); conditions: −log10 of IC50 in Molar, Hill n = 1, 0.0 = pIC50 ≤ 0 fitted
NaV1.5 [1] = target: T1, NaV1.5 (Homo sapiens, UniProt Q14524); experiment: IonWorks Quattro NaV1.5 screen (AstraZeneca, Q)
hERG [2] = target: T2, hERG (Homo sapiens, UniProt Q12809); experiment: cell-based
hERG [3] = target: T2, hERG; experiment: IonWorks Quattro hERG screen (AstraZeneca, Q)
Kv4.3/KChIP2.2 = target: T3, Kv4.3/KChIP2.2 (Homo sapiens, UniProt Q9UK17); experiment: IonWorks Quattro Kv4.3/KChIP2.2 screen (AstraZeneca, Q); type: cell-based; conditions: −log10 of IC50 in Molar, Hill n = 1, 0.0 = pIC50 ≤ 0 fitted
T3 sequence (Q9UK17 1-655): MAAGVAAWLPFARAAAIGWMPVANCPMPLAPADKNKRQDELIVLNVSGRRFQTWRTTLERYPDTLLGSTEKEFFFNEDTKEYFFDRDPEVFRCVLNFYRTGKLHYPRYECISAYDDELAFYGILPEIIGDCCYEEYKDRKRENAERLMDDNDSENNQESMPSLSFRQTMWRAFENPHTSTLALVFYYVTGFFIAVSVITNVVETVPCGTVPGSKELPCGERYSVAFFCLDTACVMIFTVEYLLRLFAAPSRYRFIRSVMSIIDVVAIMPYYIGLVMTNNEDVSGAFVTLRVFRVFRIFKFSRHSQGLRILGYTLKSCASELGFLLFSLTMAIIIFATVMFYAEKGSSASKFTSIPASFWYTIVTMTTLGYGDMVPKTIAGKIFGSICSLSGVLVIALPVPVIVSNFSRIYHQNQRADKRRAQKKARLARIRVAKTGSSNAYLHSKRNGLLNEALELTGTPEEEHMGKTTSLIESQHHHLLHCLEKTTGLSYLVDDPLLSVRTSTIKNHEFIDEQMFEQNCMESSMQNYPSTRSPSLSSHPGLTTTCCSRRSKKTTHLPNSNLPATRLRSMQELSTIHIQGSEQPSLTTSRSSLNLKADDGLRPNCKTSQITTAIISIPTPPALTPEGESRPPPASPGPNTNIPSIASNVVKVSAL
T3 sequence (Q9NS61 1-270 partner): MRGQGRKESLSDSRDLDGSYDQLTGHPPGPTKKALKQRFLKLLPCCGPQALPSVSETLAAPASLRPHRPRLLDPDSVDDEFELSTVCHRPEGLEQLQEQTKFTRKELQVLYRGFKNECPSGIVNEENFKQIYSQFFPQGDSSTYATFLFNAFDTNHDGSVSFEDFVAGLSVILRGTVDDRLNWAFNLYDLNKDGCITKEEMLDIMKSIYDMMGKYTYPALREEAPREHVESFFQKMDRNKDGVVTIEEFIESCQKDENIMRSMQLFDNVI

NaV1.5 [4] = target: T1, NaV1.5; experiment: Second IonWorks Quattro NaV1.5 screen (GSK, Q2); conditions: second independent Quattro screening; −log10 of IC50 in Molar; 0.0 = pIC50 ≤ 0 fitted
hERG [5] = target: T2, hERG
CaV1.2 = CaV1.2 (Homo sapiens, UniProt Q13936); experiment: IonWorks Quattro CaV1.2 screen (AstraZeneca, Q)
[6] = IonWorks Quattro, −log10 of IC50 in Molar, Hill n = 1, 0.0 = pIC50 ≤ 0 fitted

With CCCc1nc(C)c2c(=O)[nH]c(-c3cc(S(=O)(=O)N4CCN(CC)CC4)ccc3OCC)nn12 [Vardenafil] the “KCNQ1 pIC50 (Q)” value (KCNQ1/MinK) was 3.2.
With CCN(CC)CCNC(=O)c1c(C)[nH]c(/C=C2\C(=O)Nc3ccc(F)cc32)c1C [Sunitinib] the “NaV1.5 pIC50 (Q)” value (NaV1.5 [1]) was 4.8.
Compound N[C@@H](CC(=O)N1CCn2c(nnc2C(F)(F)F)C1)Cc1cc(F)c(F)cc1F [Sitagliptin] has an IC50 (hERG [2]) of 0.501 mM.
With CO[C@H]1C[C@@H]2CC[C@@H](C)[C@@](O)(O2)C(=O)C(=O)N2CCCC[C@H]2C(=O)O[C@H]([C@H](C)C[C@@H]2CC[C@@H](OCCO)[C@H](OC)C2)CC(=O)[C@H](C)/C=C(\C)[C@@H](O)[C@@H](OC)C(=O)[C@H](C)C[C@H](C)/C=C/C=C/C=C/1C [Everolimus] the IC50 (hERG [2]) was 0.794 mM and the IC50 (hERG [3]) was 15.8 mM.
With C[C@@H](O)[C@H]1C(=O)N2C(C(=O)O)=C(S[C@@H]3CN[C@H](CNS(N)(=O)=O)C3)[C@H](C)[C@H]12 [Doripenem] the “NaV1.5 pIC50 (Q)” value (NaV1.5 [1]; [6]) was 2.8 and the IC50 (hERG [3]) was 7.94 mM.
O=C1c2cccc3c2[C@H](CCC3)CN1[C@@H]1CN2CCC1CC2 [Palonosetron] was tested, and the “KCNQ1 pIC50 (Q)” value (KCNQ1/MinK) was 4.3.
With O=C(O[C@H]1CN2CCC1CC2)N1CCc2ccccc2[C@@H]1c1ccccc1 [Solifenacin] the “Kv4.3 pIC50 (Q)” value (Kv4.3/KChIP2.2) was 4.3.
For O=C(O)c1ccc(-n2nc(-c3ccccc3O)nc2-c2ccccc2O)cc1 [Deferasirox], the “Kv4.3 pIC50 (Q)” value (Kv4.3/KChIP2.2) was 4.3.
Cc1c(O)cccc1C(=O)N[C@@H](CSc1ccccc1)[C@H](O)CN1C[C@H]2CCCC[C@H]2C[C@H]1C(=O)NC(C)(C)C [Nelfinavir] was tested, and the “NaV1.5 pIC50 (Q)” value (NaV1.5 [1]) was 4.1 and the “KCNQ1 pIC50 (Q)” value (KCNQ1/MinK) was 4.1.
For CC1=NN(c2ccc(C)c(C)c2)C(=O)/C1=N\Nc1cccc(-c2cccc(C(=O)O)c2)c1O [Eltrombopag], the “NaV1.5 pIC50 (Q2)” value (NaV1.5 [4]) was 3.5 and the “NaV1.5 pIC50 (Q)” value (NaV1.5 [1]; [6]) was 3.8.
In the case of Cc1cn(-c2cc(NC(=O)c3ccc(C)c(Nc4nccc(-c5cccnc5)n4)c3)cc(C(F)(F)F)c2)cn1 [Nilotinib], the “hERG pIC50 (Q)” value (hERG [5]) is reported as 4.2.
Cc1nc(Nc2ncc(C(=O)Nc3c(C)cccc3Cl)s2)cc(N2CCN(CCO)CC2)n1.O [Dasatinib] was tested, and the “NaV1.5 pIC50 (Q2)” value (NaV1.5 [4]) was 3.4 and the “CaV1.2 pIC50 (Q)” value (CaV1.2) was 3.4.
